{
  "source": "patent US20230114865A1",
  "about": "“PHENYL PYRROLE AMINOGUANIDINE SALTS AND FORMULATIONS” (SYNACT PHARMA APS, priority 2021, published 2023)",
  "key": {"[1]": {"assay": "Thermodynamic solubility of AP1189 salts in 0.2 M or 0.5 M buffer solutions, 24 hr, HPLC", "details": "as freebase"}, "[2]": {"details": "37° C, buffer pH 6.8, 22 h"}, "[3]": {"details": "0.2 M buffer pH 1.2, ambient temperature"}},
  "note": "Marks after values point to notes of the source that are not given here.",
  "data": [
    {"substance": "(E)-N-[1-(2-nitrophenyl)-1-H-pyrrole-2-yl-allylideneamino]-guanidinium succinate [AP1189 succinate]", "values": [
      {"measurement": "Solubility at 24 h (mM freebase)", "setting": "[1]; [3]", "value": ">36.26** mM"},
      {"measurement": "equilibrium solubility pH 6.8", "setting": "[2]", "value": "2.5 mM ± 0.1 mM (22 h)"}
    ]},
    {"substance": "(E)-N-[1-(2-nitrophenyl)-1-H-pyrrole-2-yl-allylideneamino]-guanidinium acetate [AP1189 acetate]", "values": [
      {"measurement": "Solubility at 24 h (mM freebase)", "setting": "[1]; [3]", "value": 134.10, "unit": "mM"},
      {"measurement": "Solubility at 24 h (mM freebase)", "setting": "[1]; 0.2 M buffer pH 4.5, ambient temperature", "value": 2.23, "unit": "mM"}
    ]}
  ]
}
